# Antibody variant affinities, Ab-14 heavy chain, assay B

Source: Li et al. 2023 (doi:10.1038/s41467-023-39022-2), MIT Lincoln Laboratory and A-Alpha Bio; data file from the FLAb repository.

The target is the same throughout: PDVDLGDISGINAS, from the HR2 region of SARS-CoV-2 spike.

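The variants were designed computationally from a first round of random CDR variants and then made and measured. Their group label is 14H_En_Gen (En: ensemble of fine-tuned language models; Gen: genetic algorithm). In AlphaSeq, yeast of one mating type display the scFv and yeast of the other type display the target. Mating (16 h, 30 °C) was followed by selection of diploids and sequencing of their barcodes. The ratio of observed to expected reads was calibrated, replicate by replicate, on BCL2-family standards whose Kd was known from biolayer interferometry. The assay was run in six technical replicates.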

Parent: Ab-14, a human scFv built as VH, a (GGGGS)3 linker, VL. Only the CDRs of the heavy chain vary.
VH: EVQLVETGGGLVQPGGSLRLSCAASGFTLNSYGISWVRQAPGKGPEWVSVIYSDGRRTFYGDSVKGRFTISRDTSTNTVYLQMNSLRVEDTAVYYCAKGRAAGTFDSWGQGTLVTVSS
VL: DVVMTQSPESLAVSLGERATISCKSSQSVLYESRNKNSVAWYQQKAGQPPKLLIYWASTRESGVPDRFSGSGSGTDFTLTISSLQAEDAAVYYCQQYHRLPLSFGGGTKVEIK

Each variant's VH is given in full.
Values are log10 of the apparent Kd in nM; lower means stronger binding.
"ND" means that the variant was in the library but no mating with the target was seen in that replicate; the authors take this as a sign of poor binding, and no number exists.

{"VH": "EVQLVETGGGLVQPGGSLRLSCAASGFDLNEYGISWVRQAPGKGPEWVSVIYADGLRTAYADSVKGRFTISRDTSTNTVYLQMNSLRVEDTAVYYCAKGSNAGTFDVWGQGTLVTVSS", "log10 Kd, replicates": "-0.44 / -0.56 / -0.62 / -0.93 / -0.62 / -0.54", "empty controls": "0 of 18"}
{"VH": "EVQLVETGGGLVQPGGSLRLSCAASGFDLNEYGISWVRQAPGKGPEWVSVIYADGFRTAYADSVKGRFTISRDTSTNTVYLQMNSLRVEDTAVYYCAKGNVAGTFDIWGQGTLVTVSS", "log10 Kd, replicates": "-0.20 / -0.60 / -0.48 / -1.15 / -0.74 / -0.46", "empty controls": "0 of 18"}
{"VH": "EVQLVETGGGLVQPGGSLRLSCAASGFDLNEYGISWVRQAPGKGPEWVSVIYADGMRTFYADSVKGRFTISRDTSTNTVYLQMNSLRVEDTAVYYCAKGNQAGTFDIWGQGTLVTVSS", "log10 Kd, replicates": "-0.23 / 0.05 / -0.24 / -0.25 / -0.30 / 0.04", "empty controls": "1 of 18 (2.89)"}
{"VH": "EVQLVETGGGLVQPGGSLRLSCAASGFDLDEYGISWVRQAPGKGPEWVSVIYADGQRTAYANSVKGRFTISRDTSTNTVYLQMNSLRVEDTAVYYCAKGNVAGTFDVWGQGTLVTVSS", "log10 Kd, replicates": "-0.10 / -0.22 / -0.46 / -0.47 / -0.17 / -0.33", "empty controls": "0 of 18"}
{"VH": "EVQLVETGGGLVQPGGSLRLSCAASGFDLDEYGISWVRQAPGKGPEWVSVIYADGMRTAYSDDVKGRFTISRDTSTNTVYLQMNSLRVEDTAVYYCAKGQNAGTFDVWGQGTLVTVSS", "log10 Kd, replicates": "-0.85 / -1.35 / -0.85 / -1.03 / -0.64 / -0.98", "empty controls": "0 of 18"}
{"VH": "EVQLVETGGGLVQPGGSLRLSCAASGFDLNEYGISWVRQAPGKGPEWVSVIYADGMRKAYADSVKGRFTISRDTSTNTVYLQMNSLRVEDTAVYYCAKGNNAGTFDQWGQGTLVTVSS", "log10 Kd, replicates": "-0.35 / 0.10 / 0.23 / -0.78 / -0.53 / -0.11", "empty controls": "0 of 18"}
{"VH": "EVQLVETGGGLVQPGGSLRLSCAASGFDLNEYGISWVRQAPGKGPEWVSVIYADGRRTFYADSVKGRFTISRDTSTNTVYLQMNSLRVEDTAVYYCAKGNNAGTFDVWGQGTLVTVSS", "log10 Kd, replicates": "-1.02 / -1.22 / -1.04 / -1.51 / -1.16 / -0.91", "empty controls": "0 of 18"}
{"VH": "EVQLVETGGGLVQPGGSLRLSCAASGFDLDEYGISWVRQAPGKGPEWVSVIYADGKRTAYADSVKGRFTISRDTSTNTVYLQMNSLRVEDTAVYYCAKGSNAGTFDVWGQGTLVTVSS", "log10 Kd, replicates": "ND / 0.28 / 0.17 / 0.11 / -0.05 / 0.63", "empty controls": "0 of 18"}
{"VH": "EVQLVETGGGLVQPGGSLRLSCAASGFDLNEYGISWVRQAPGKGPEWVSVIYADGVRTVYADSVKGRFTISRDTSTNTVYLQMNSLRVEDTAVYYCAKGNVAGTFDMWGQGTLVTVSS", "log10 Kd, replicates": "-0.61 / -0.19 / -0.27 / -0.96 / -0.35 / -0.49", "empty controls": "0 of 18"}
{"VH": "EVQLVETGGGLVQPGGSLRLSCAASGFDLNEYGISWVRQAPGKGPEWVSVIYADGSRTAYADSVKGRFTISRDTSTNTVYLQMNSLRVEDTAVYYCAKGNVAGTFDAWGQGTLVTVSS", "log10 Kd, replicates": "ND / -1.48 / -1.71 / ND / -0.88 / -0.41", "empty controls": "0 of 18"}
{"VH": "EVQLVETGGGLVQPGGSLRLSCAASGFDLNEYGISWVRQAPGKGPEWVSVIYADGVRTAYVDKVKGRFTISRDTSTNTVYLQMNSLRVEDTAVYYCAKGNVAGTFDVWGQGTLVTVSS", "log10 Kd, replicates": "-0.10 / -0.57 / -0.39 / -0.32 / -0.53 / -0.22", "empty controls": "1 of 18 (2.24)"}
{"VH": "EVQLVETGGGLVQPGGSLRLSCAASGFDLNEYGISWVRQAPGKGPEWVSVIYADGVRTAYANSVKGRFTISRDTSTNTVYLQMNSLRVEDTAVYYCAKGEVAGTFDLWGQGTLVTVSS", "log10 Kd, replicates": "0.09 / -0.34 / -0.47 / -0.65 / -0.22 / -0.06", "empty controls": "0 of 18"}
{"VH": "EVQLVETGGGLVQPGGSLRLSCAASGFDLNEYGISWVRQAPGKGPEWVSVIYADGMRTAYSDSVKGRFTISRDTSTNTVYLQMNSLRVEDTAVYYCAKGENAGTFDAWGQGTLVTVSS", "log10 Kd, replicates": "0.45 / -0.05 / 0.54 / 0.89 / 0.18 / 0.22", "empty controls": "0 of 18"}
{"VH": "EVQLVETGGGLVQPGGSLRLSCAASGFDLDEYGISWVRQAPGKGPEWVSVIYADGMRTVYTDSVKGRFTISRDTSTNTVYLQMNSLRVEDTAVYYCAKGNVAGTFDVWGQGTLVTVSS", "log10 Kd, replicates": "-0.36 / -0.42 / -0.43 / -0.72 / -0.89 / 0.21", "empty controls": "0 of 18"}
{"VH": "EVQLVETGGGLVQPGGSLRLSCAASGFDLNEYGISWVRQAPGKGPEWVSVIYADGSRKAYADSVKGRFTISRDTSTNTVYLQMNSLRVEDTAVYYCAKGNVAGTFDIWGQGTLVTVSS", "log10 Kd, replicates": "-0.77 / -1.23 / -0.56 / -1.12 / -0.68 / -0.42", "empty controls": "0 of 18"}
{"VH": "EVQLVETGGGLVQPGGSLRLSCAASGFDLNEYGISWVRQAPGKGPEWVSVIYADGVRTAYADSVKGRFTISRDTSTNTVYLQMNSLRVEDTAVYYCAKGQVAGTFDLWGQGTLVTVSS", "log10 Kd, replicates": "-0.54 / -0.42 / -0.36 / -0.59 / -0.69 / -0.57", "empty controls": "0 of 18"}
{"VH": "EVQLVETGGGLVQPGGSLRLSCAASGFDLDEYGISWVRQAPGKGPEWVSVIYADGMRTAYVDSVKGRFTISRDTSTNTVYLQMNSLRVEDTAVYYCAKGENAGTFDVWGQGTLVTVSS", "log10 Kd, replicates": "-0.62 / -0.60 / -0.70 / -0.69 / -0.97 / -0.50", "empty controls": "1 of 18 (2.35)"}
{"VH": "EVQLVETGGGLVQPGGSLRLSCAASGFDLNEYGISWVRQAPGKGPEWVSVIYADGVRTAYADSVKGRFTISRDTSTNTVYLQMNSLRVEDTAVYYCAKGNVAGTFDVWGQGTLVTVSS", "log10 Kd, replicates": "-0.33 / -0.48 / -0.48 / -0.58 / -0.53 / -0.46", "empty controls": "1 of 18 (1.92)"}
{"VH": "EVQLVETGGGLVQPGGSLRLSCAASGFDLNEYGISWVRQAPGKGPEWVSVIYADGIRTAYADDVKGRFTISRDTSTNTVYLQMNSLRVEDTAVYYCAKGEVAGTFDVWGQGTLVTVSS", "log10 Kd, replicates": "-1.06 / -0.63 / -0.24 / -0.88 / -0.12 / -0.74", "empty controls": "0 of 18"}
{"VH": "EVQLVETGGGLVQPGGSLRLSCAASGFDLNEYGISWVRQAPGKGPEWVSVIYADGMRTAYIDSVKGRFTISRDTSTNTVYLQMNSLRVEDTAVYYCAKGQNAGTFDIWGQGTLVTVSS", "log10 Kd, replicates": "-0.40 / -0.82 / -0.94 / -1.13 / -1.11 / -0.57", "empty controls": "0 of 18"}
{"VH": "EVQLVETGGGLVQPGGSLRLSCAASGFDLDEYGISWVRQAPGKGPEWVSVIYADGKRTFYSDSVKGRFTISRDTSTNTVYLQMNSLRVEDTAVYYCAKGNVAGTFDVWGQGTLVTVSS", "log10 Kd, replicates": "-0.10 / -0.61 / -0.53 / -0.28 / -0.15 / -0.10", "empty controls": "0 of 18"}
{"VH": "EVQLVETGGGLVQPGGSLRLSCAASGFDLDEYGISWVRQAPGKGPEWVSVIYADGMRTAYTDSVKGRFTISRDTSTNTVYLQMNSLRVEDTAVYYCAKGNEAGTFDIWGQGTLVTVSS", "log10 Kd, replicates": "1.64 / 2.37 / ND / 0.12 / 1.62 / 0.75", "empty controls": "0 of 18"}
{"VH": "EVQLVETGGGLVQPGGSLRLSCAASGFDLNEYGISWVRQAPGKGPEWVSVIYADGRRTFYADSVKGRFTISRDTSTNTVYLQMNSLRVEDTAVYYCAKGNVAGTFDMWGQGTLVTVSS", "log10 Kd, replicates": "-0.32 / -0.47 / -1.01 / -1.26 / -1.03 / -0.65", "empty controls": "0 of 18"}

Background: pairings of all heavy chain designs with three empty control strains gave a value in 1% of cases (median 2.08, 5th percentile 0.84). Values in that range, when seen in few replicates, are hard to tell from nonspecific mating. Also given: how often the same scFv was detected with the empty control strains, with their mean in brackets.
In the paper, a design with two or fewer of six values counts as a poor binder.
The parent sequence was in this pool as ten entries: three were never detected, three once, and four in most replicates, with averages from 0.34 to 2.37.
A sequence measured in both rounds can read differently, since the two assays cover different ranges.